The values that follow come from patent US20070078620A1, “Methods and kits for delivering pharmaceutical agents into the coronary vascular adventitia” (Mercator MedSystems Inc., priority 2002, published 2007).

For the series the following is noted: pig, in vivo.

For the substance Oregon Green® 488 paclitaxel [OGP], the circumferential staining entry is on record as “staining was observed throughout the circumference of the artery”, the “longitudinal extension from the injection site (mean)” value was 15 mm, the “penetration of drug into vessel wall layers” value was “penetrated into the media” and the “staining after intraluminal delivery” value was “staining on the luminal surface only”. The “staining of the adventitia (UV microscope, scored 0-4+)” value is given as 4+.
